The source of these data is PubChem BioAssay AID588492 (Sanford-Burnham Center for Chemical Genomics, 2011).

Molecules are shown by their SMILES. Only a part is listed here, and it is no random draw. Calls of active or inactive are those of the source.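 The calls were made as follows: active = compounds giving at least 50% protection of heart cells from peroxide-induced death in the single-dose screen, raw or plate-pattern-corrected value; inactive = the rest.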

The nature of the assay: H9c2 cardiomyocyte survival under peroxide injury – uHTS, H9c2 cells, ATPLite luminescence, primary screen (AID 588492).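 Also: 0% = DMSO wells with peroxide and 100% = DMSO wells without peroxide.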 Particulars: H9c2 cardiomyocytes, 2 h, at 20 µM, stronger effect = higher value.
Turning to `NC(=O)Nc1ccc([As](=O)(O)O)cc1`, the protection from H2O2 cell death is inactive: 8.7%. As for `O=C(O)COc1ccc([As](=O)(O)O)cc1[N+](=O)[O-]`, the protection from H2O2 cell death was inactive: -0.7%. As to `Nc1ccccc1[As](=O)(O)c1ccccc1`, the protection from H2O2 cell death was inactive: 1.2%. As to `CS(=O)(=O)c1cc([N+](=O)[O-])c2no[n+]([O-])c2c1`, the protection from H2O2 cell death was inactive: -7.2%. As for `O=P(Nc1nccs1)(Oc1ccccc1)Oc1ccccc1`, the protection from H2O2 cell death is inactive: 8.3%. On to `O=P(Nc1nccs1)(c1ccccc1)c1nc2ccccc2s1` (stereo unspecified), for which the protection from H2O2 cell death was inactive: -6.4%. In the case of `CCOP1(=S)c2c(C)nn(CCC#N)c2N=C(c2ccccc2F)N1C` (stereo unspecified), the protection from H2O2 cell death was inactive: 8.8%. Take `CCOP(=O)(Nc1cccc2ccccc12)OCC`: the protection from H2O2 cell death is inactive: -2.1%. To `COc1cc(C2NCCC3(OCCO3)C2(C)C)cc(OC)c1OC` (stereo unspecified) belongs inactive: -8.5%; to `CCCOP(=S)(Nc1nc(N)cc(=O)[nH]1)OCCC`, inactive: 1.9%. To `Cc1ccc(NCCc2c([N+](=O)[O-])cc([N+](=O)[O-])cc2[N+](=O)[O-])cc1` belongs inactive: -3.3%; to `Nc1cccc2c([As](=O)(O)O)cccc12`, inactive: 3.4%; to `Cc1cccc(OCC(=O)OC2CN3CCC2CC3)c1` (stereo unspecified), inactive: 13.8%. Take `O=[As](O)(c1cccc(O)c1)c1cccc(O)c1`: the protection from H2O2 cell death was inactive: 1.9%. For `CS(=O)(=O)c1ccc(Cl)c(NC(=O)COC(=O)C(O)(c2ccccc2)c2ccccc2)c1`, the protection from H2O2 cell death was inactive: 2.6%. On to `O=[As](O)(O)c1cccnc1`, for which the protection from H2O2 cell death is inactive: 0%.

With `O=C(OC1CN2CCC1CC2)c1ccc(Cl)cc1` (stereo unspecified), the protection from H2O2 cell death is inactive: 2.3%.

As to `CC1(CBr)Cn2c(nc3ccccc3c2=O)S1` (stereo unspecified), the protection from H2O2 cell death is inactive: -1.2%.

For the compound `CN(C(=O)Cc1ccc(Cl)c(Cl)c1)[C@@H]1CCCC[C@H]1N1CCCC1`, the protection from H2O2 cell death was inactive: -2.3%.

`CC(C)/C=N\N=C(\N)N[N+](=O)[O-]`: the protection from H2O2 cell death was inactive: 4.8%.

For the compound `COc1ccccc1CNC(=O)COC(=O)C(O)(c1ccccc1)c1ccccc1`, the protection from H2O2 cell death is inactive: -3.4%. Turning to `CC(C)(C)C(=O)NC(Sc1ncccn1)C(Cl)(Cl)Cl` (stereo unspecified), the protection from H2O2 cell death is inactive: 0.8%.

Regarding `Clc1n[nH]nc1-c1nn[nH][15n]1`, the protection from H2O2 cell death is inactive: -1.6%. In the case of `O=P1(N(CCCl)CCCl)NCCC(C(F)(F)F)O1` (stereo unspecified), the protection from H2O2 cell death is inactive: 6.9%. With `CCOP(=O)(Nc1ccc(C)cn1)OCC`, the protection from H2O2 cell death is inactive: -0.7%. `CN(CCCl)Cc1cc(Cl)c(NC2=NCCN2)c(Cl)c1`: the protection from H2O2 cell death was inactive: 0.8%. As for `CCOP(=O)(NC(=NC(C)c1ccccc1)NC(C)c1ccccc1)OCC` (stereo unspecified), the protection from H2O2 cell death was inactive: 2.9%. To `CCC1=CC2Cc3nc4ccc(Cl)cc4c(N)c3C(C1)C2` (stereo unspecified) belongs inactive: -17.6%; to `O=P1(Nc2ccccn2)COc2ccccc2OC1`, inactive: -0.1%. Consider `Cc1ccc(OCC(=O)OC2CN3CCC2CC3)cc1` (stereo unspecified), for which the protection from H2O2 cell death was inactive: 3%.

`O=[As](O)(c1cccs1)c1cccs1`: the protection from H2O2 cell death was inactive: 4%. As to `NS(=O)(=O)c1cccc(NC(=O)COC(=O)C(O)(c2ccccc2)c2ccccc2)c1`, the protection from H2O2 cell death was inactive: -5.4%. Regarding `O=P1(Nc2ccc(Br)cn2)COc2ccccc2OC1`, the protection from H2O2 cell death is inactive: -0.2%. To `Nc1cccc([As](=O)(O)c2ccccc2)c1` belongs inactive: -3.7%; to `O=P1(Nc2ncccn2)COc2ccccc2OC1`, inactive: -1%; to `Cc1ccc(S(=O)(=O)N(CCCN)CCCc2c(C)nc(N)[nH]c2=O)cc1`, inactive: 1.2%. `CCCC1OP(=O)(Nc2ccccc2)OCC1CC` (stereo unspecified): the protection from H2O2 cell death is inactive: -4.7%.

`O=C(/C=C/c1ccccc1)OC1CN2CCC1CC2` (stereo unspecified): the protection from H2O2 cell death was inactive: -2.1%. `Cc1ccc(C(=O)OC2CN3CCC2CC3)cc1` (stereo unspecified): the protection from H2O2 cell death is inactive: 3.5%. Regarding `CC1CCC(C(C)C)C(OP(=O)(Nc2ccccn2)c2ccccc2)C1` (stereo unspecified), the protection from H2O2 cell death was inactive: 46.5%. On to `Cc1nn(-c2ccccc2)c2c1P(=O)(N1CCOCC1)N(C)C(c1ccccc1)=N2` (stereo unspecified), for which the protection from H2O2 cell death was inactive: 7.5%.
